Measurements taken from patent US9096492B2, “Hydrated N-fullerene amino acids, method for producing the latter, and pharmaceutical compositions on the basis thereof” (priority 2011, dated 2015).
Like-named read-outs stand apart in the source and are kept apart here.

Assays:
[1] = rat, in vivo
[2] = Acute toxicity in rats after a single intramuscular injection; format: in vivo, Wistar rats
[3] = rat, in vivo; remark: listed apart in the source

N-fullerene tris(δ-aminocaproic acid) hydrate [Agent 1]
Weight coefficients of viscera, Testicles [1]: 9.7 ± 1.2 g/kg body weight | Weight coefficients of viscera, Testicles ([1]; 3 mg/kg): 10.4 ± 1.3 g/kg body weight | Animal body weight (M ± SD) ([2]; females, 5 mg/kg single intramuscular, day 7): 183 ± 15.0 g | Animal body weight (M ± SD) ([2]; females, 5 mg/kg single intramuscular, day 14): 206 ± 17.0 g | Animal body weight (M ± SD) ([2]; females, 50 mg/kg single intramuscular, day 7): 177 ± 17.5 g | Animal body weight (M ± SD) ([2]; females, 50 mg/kg single intramuscular, day 14): 201 ± 15.8 g | Animal body weight (M ± SD) ([2]; females, 500 mg/kg single intramuscular, day 14): 198 ± 10.3 g | Animal body weight (M ± SD) ([2]; males, 5 mg/kg single intramuscular, day 0): 188 ± 12.5 g | Animal body weight (M ± SD) ([2]; males, 50 mg/kg single intramuscular, day 0): 190 ± 14.3 g | Animal body weight (M ± SD) ([2]; males, 500 mg/kg single intramuscular, day 0): 189 ± 14.1 g | Animal body weight (M ± SD) ([2]; males, 500 mg/kg single intramuscular, day 7): 207 ± 19.3 g | Avg. erythr. volume., Mcm ([3]; 3 mg/kg): 55.2 ± 4.6 Mcm | Avg. erythr. volume., mcm ([3]; 3 mg/kg): 52.0 ± 1.6 mcm | Leukocytes ths/mm^3 ([3]; 3 mg/kg): 21.4 ± 4.7 ths/mm^3 | Leukocytes, ths/mm^3 ([3]; 3 mg/kg): 22.0 ± 6.8 ths/mm^3 | Avg. erythr. volume., Mcm ([3]; 9 mg/kg): 52.4 ± 1.5 Mcm | Avg. erythr. volume., mcm ([3]; 9 mg/kg): 53.4 ± 4.6 mcm | Leukocytes ths/mm^3 ([3]; 9 mg/kg): 20.4 ± 8.8 ths/mm^3 | Leukocytes, ths/mm^3 ([3]; 9 mg/kg): 19.6 ± 2.5 ths/mm^3 | Avg. erythr. volume., Mcm ([3]; 20 mg/kg): 52.2 ± 3.4 Mcm | Leukocytes ths/mm^3 ([3]; 20 mg/kg): 19.7 ± 3.2 ths/mm^3 | Leukocytes, ths/mm^3 ([3]; 20 mg/kg): 24.8 ± 6.2 ths/mm^3
